A short description of the series: Brain to plasma ratio in mouse at 50 mg/kg, iv. The class given is ADME, organism-based. The following applies: brain and plasma, read-out: BPR.

Kp data for one compound are collected here from ChEMBL document CHEMBL5625159, “Challenges for the development of mutant isocitrate dehydrogenases 1 inhibitors to treat glioma” (Eur J Med Chem, 2023).

SMILES strings stand for the structures.

`C[C@H](Nc1ccc(C#N)n(C)c1=O)c1cc2cc(Cl)ccc2[nH]c1=O` [OLUTASIDENIB]: the Kp was 0.24.
